Measured values from patent US20240325398A1, “COMBINATION THERAPIES” (Infinity Pharmaceuticals, Inc., priority 2014, published 2024).

How the values were obtained:
Assay in all cases: Combination study, ATPLite 72 h, dose matrix (Synergy Score, CI50)
Conditions in all cases: combination with Compound 1
[1] = tested on: HBL-1
[2] = tested on: SU-DHL-4-epst
[3] = tested on: DOHH-2
[4] = tested on: Farage
[5] = tested on: KARPAS-422
[6] = tested on: Jeko-1
[7] = tested on: NCI-H929
[8] = tested on: RPMI-8226

SMILES: CC(C)C[C@H](NC(=O)[C@H](Cc1ccccc1)NC(=O)c1cnccn1)B(O)O [bortezomib, [(1R)-3-methyl-1-({(2S)-3-phenyl-2-[(pyrazin-2-ylcarbonyl)amino]propanoyl}amino)butyl]boronic acid]
- Synergy Score growth inhibition [1]: A2 (A2=1 to <3)
- Synergy Score inhibition [1]: A1 (A1=0.0001 to <1)
- Synergy Score growth inhibition [2]: A3 (A3=>3)
- Synergy Score inhibition [2]: A1 (A1=0.0001 to <1)
- Synergy Score growth inhibition [3]: A2 (A2=1 to <3)
- Synergy Score inhibition [3]: A1 (A1=0.0001 to <1)
- Synergy Score growth inhibition [4]: A3 (A3=>3)
- Synergy Score inhibition [4]: A1 (A1=0.0001 to <1)
- Synergy Score growth inhibition [5]: A2 (A2=1 to <3)
- Synergy Score inhibition [5]: A1 (A1=0.0001 to <1)
- Synergy Score growth inhibition [6]: A1 (A1=0.0001 to <1)
- Synergy Score inhibition [6]: A1 (A1=0.0001 to <1)
- Synergy Score growth inhibition [7]: A1 (A1=0.0001 to <1)
- Synergy Score inhibition [7]: A1 (A1=0.0001 to <1)
- Synergy Score growth inhibition [8]: A1 (A1=0.0001 to <1)
- Synergy Score inhibition [8]: A1 (A1=0.0001 to <1)
